Tested on: phosphorylation of ERK and STAT3
Assay: Western blotting of ERK and STAT3 phosphorylation in hypoxic KHYG-1 cells
Assay type: cell-based
Details: hypoxic KHYG-1 cells pre-treated with 5 μM for 2 h
Procedure: For western blotting, treated and untreated KHYG-1 and NK92 cells were lysed in buffer containing 50 mM Tris, 150 mM NaCl, 1% Triton X-100, 1% sodium deoxycholate, 0.1% SDS and protease inhibitors on ice for 30 min. Lysates were centrifuged at 12,000 rpm for 15 min, and supernatants were collected. Protein concentration was determined by the BCA protein assay kit (HEART Biotech, #WB003). Equal amounts of protein were loaded and separated on sodium dodecyl sulfate-polyacrylamide gel electrophoresis gel, and transferred onto a PVDF membrane (Millipore, #IPVH00010). After blocking for 1 h with 5% non-fat milk in PBS with 0.1% Tween-20 at room temperature, the membrane was incubated with primary antibody at 4° C. overnight. Immunoblots were visualized using HRP-conjugated secondary antibodies and the ECL Western Blot Detection kit (Phygene Life Sciences, #PH0353).
Prior to siRNA transfection, KHYG-1 cells were washed in pre-warmed Opti-MEM medium (Life Technologies, Carlsbad, Calif., USA) and resuspended in the same medium. Then, 10^6 cells were electroporated with 2 μg of siRNA in 100 μL Opti-MEM medium in 0.2 cm cuvettes with an electroporator CUY21EDIT (BEX Co. Ltd, Japan). […] Transfection efficiency and viability were analyzed by flow cytometry 2-6 h after electroporation by quantitatively measuring the expression of fluorescein isothiocyanate (FITC)-labeled siRNA or 7-AAD. […]

CC1(N)CCN(c2cnc(-c3cccc(Cl)c3Cl)c(N)n2)CC1 [SHP099]
phosphorylation of ERK and STAT3: no effect

From US20230210903A1, “HYPOXIA-RESISTANT NATURAL KILLER CELLS” (ONK THERAPEUTICS LIMITED, priority 2020, published 2023)
